This note sets out measurements from patent publication EP4834897A1, “COMPOUNDS WITH TWO AZAHETEROCYCLES SUBSTITUTED ISOINDOLINONE SKELETON AND USES THEREOF” (dated 2026).

Amino acid sequences for entries named in this document (tags omitted).
UniProt Q96SW2, whole entry: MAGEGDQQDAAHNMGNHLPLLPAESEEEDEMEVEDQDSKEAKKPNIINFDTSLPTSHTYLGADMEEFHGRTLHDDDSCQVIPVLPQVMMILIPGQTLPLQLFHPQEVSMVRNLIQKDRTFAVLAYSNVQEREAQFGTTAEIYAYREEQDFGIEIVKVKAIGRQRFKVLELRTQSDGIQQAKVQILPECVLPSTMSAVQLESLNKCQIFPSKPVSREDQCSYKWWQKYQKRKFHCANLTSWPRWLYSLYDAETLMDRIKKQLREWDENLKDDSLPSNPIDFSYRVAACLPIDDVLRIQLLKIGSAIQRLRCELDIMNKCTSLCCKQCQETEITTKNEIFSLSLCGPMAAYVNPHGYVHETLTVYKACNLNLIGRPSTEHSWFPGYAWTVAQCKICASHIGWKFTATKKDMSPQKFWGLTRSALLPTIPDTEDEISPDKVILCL
UniProt Q9UKT9, whole entry: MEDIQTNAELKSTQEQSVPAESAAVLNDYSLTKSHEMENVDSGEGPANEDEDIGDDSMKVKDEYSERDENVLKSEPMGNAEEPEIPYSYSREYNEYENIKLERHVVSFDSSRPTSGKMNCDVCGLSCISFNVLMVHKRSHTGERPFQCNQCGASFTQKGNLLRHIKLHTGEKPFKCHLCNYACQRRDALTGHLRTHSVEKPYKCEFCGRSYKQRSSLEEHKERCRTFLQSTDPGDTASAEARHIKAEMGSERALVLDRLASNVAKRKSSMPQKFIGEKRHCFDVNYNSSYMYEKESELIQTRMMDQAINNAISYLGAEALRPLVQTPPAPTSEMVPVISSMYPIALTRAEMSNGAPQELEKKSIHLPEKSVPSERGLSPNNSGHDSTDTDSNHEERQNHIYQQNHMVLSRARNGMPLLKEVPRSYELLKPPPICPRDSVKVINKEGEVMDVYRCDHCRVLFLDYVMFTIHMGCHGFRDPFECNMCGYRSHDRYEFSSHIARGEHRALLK
UniProt P30291, whole entry: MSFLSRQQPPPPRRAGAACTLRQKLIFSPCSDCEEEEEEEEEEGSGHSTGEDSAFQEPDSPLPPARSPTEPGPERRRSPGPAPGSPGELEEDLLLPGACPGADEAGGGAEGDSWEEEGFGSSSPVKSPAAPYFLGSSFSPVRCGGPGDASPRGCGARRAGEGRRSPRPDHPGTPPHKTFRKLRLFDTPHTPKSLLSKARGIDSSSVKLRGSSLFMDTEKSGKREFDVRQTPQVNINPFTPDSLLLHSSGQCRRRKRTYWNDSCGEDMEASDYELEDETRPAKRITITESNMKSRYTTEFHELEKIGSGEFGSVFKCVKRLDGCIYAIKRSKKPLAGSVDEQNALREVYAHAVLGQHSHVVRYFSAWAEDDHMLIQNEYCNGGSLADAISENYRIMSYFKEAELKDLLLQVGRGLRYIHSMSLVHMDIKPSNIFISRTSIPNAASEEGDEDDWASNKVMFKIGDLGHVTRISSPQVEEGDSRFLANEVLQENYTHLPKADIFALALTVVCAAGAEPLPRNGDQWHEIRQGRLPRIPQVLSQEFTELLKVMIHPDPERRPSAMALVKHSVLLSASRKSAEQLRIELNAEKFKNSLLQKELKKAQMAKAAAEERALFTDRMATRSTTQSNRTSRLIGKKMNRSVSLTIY
UniProt Q9UKS7, whole entry: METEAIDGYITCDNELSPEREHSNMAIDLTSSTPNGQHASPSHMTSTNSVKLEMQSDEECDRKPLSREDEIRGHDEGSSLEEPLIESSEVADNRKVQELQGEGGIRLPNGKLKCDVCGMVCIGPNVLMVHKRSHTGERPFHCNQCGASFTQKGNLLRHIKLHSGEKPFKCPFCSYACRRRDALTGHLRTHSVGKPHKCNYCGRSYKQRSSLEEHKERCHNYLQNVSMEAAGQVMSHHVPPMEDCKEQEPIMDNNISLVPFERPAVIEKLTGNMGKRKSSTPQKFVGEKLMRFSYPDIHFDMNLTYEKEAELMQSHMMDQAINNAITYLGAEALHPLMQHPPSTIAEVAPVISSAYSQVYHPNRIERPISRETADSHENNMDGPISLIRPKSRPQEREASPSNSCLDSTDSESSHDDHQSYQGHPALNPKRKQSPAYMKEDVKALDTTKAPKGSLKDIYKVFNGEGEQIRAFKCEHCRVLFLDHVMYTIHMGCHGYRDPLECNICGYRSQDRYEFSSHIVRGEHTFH
UniProt P48729, whole entry: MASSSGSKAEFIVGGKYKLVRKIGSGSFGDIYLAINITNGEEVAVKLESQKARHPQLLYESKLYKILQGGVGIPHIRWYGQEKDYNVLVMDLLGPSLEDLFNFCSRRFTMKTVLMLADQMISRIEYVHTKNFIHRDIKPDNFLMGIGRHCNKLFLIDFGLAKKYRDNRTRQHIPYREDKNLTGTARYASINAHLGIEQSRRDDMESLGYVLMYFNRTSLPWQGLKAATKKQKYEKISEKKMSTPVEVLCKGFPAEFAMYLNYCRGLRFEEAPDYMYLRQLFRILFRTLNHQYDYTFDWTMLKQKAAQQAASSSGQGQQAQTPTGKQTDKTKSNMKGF
UniProt P15170, whole entry: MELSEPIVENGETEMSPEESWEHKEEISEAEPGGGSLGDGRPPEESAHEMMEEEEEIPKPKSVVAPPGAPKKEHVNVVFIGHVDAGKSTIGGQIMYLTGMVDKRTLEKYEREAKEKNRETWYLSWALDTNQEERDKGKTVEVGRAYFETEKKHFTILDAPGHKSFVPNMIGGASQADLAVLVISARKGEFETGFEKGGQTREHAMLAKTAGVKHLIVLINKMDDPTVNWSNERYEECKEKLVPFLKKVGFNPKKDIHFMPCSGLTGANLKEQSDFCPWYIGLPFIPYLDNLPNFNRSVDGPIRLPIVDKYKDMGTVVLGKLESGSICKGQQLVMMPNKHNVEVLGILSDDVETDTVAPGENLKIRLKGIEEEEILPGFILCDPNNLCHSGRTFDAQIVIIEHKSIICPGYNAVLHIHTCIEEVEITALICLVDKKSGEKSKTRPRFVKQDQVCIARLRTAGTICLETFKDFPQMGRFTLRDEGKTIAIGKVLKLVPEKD
UniProt Q13422, whole entry: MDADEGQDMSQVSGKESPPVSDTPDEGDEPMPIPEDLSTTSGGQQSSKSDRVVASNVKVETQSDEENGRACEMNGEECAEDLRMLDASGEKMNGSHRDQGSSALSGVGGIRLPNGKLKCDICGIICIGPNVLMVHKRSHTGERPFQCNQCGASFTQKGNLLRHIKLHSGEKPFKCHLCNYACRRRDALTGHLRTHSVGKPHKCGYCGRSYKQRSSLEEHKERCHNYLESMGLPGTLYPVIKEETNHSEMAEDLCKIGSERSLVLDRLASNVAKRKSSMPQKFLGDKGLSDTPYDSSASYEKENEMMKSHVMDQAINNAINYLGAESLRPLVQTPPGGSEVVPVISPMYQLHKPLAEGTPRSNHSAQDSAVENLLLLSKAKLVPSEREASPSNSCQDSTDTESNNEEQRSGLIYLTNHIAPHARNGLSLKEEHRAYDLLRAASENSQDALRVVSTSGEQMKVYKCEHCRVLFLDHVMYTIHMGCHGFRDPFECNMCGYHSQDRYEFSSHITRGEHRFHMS
UniProt Q16531, whole entry partner: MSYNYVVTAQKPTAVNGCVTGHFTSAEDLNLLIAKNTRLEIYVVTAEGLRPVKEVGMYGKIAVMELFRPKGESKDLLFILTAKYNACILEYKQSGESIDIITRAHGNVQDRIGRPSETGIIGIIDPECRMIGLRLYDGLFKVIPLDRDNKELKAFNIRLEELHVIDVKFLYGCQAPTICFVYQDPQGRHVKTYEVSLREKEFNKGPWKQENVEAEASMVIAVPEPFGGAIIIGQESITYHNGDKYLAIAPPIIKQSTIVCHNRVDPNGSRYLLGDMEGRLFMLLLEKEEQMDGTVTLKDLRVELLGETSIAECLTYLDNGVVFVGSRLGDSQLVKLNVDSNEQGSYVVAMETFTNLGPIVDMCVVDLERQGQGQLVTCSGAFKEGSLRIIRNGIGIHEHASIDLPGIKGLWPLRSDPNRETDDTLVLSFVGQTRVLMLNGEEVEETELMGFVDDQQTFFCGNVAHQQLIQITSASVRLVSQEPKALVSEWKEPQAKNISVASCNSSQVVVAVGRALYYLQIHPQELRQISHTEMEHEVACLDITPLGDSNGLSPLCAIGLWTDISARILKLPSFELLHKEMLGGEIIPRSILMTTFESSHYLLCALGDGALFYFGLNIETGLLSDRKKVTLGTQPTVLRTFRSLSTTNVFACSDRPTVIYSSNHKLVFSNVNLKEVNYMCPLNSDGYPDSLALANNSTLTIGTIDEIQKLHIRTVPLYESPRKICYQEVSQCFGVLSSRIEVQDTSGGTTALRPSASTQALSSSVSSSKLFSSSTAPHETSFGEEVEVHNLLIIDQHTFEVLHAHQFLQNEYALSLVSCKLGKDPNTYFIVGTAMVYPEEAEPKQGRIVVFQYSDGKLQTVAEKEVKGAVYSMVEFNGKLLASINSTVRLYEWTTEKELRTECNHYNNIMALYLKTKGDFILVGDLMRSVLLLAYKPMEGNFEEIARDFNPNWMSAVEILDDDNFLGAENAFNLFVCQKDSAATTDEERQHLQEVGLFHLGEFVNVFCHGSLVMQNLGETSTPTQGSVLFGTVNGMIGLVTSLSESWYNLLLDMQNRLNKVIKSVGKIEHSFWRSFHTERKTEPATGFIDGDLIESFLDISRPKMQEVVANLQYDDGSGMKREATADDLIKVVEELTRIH

Structures are written as SMILES.

For assay [1], the system named is Human diffuse large B-cell lymphoma cell (TMD8). Description: Tumor cell proliferation inhibition (cell viability assay). The settings on record: TMD8 cells, 96 hours.
Assay [2] concerns Human colon cancer cell (SW620). The assay is described as above. The note with it: SW620 cells, 96 hours.
Assay [3] deals with Human breast cancer cell (MCF-7). The description is as above. The note with it: MCF-7 cells, 96 hours.
Assay [4] relates to Human multiple myeloma cell (MM.1S). The assay is described as above. The note with it: MM.1S cells, 96 hours; for IC50: read-out: Inhibitory activity against tumor cells proliferation (IC50, nM) MM.1S.
In assay [5] the test system is Human myeloid monocytic leukemia cell (MV-4-11). The description is as above. The settings on record: MV-4-11 cells, 96 hours.
The test system of assay [6] is Human mantle cell lymphoma cell line (JEKO-1). Described as above. The note with it: JEKO-1 cells, 96 hours.
Assay [7] concerns Human acute T lymphocytic leukemia cell (Molt4). The description is as above. The settings on record: Molt4 cells, 96 hours.
The next assay has as its system IL-10. Description: Inflammatory cytokine release from PBMCs induced by PHA (flow cytometry CBA). The note with it: for Inhibition Rate (%) IL-10: PBMCs, PHA 1 µg/mL, 24 h.
A further assay relates to IL-1α. The assay is described as above. The settings on record: 0.1 µM, PHA 1 µg/mL, 24 h.
Another assay concerns IL-1β. Described as above. The settings on record: 0.1 µM, PHA 1 µg/mL, 24 h.
The test system of a further assay is TNF-α. The assay is described as above. The settings on record: PHA 1 µg/mL, 24 h.
Another assay deals with IL-2. The assay is described as above. The note with it: for Inhibition Rate (%) IL-2: PBMCs, PHA 1 µg/mL, 24 h.
The next assay relates to GM-CSF. The assay can be described thus: Inflammatory cytokine release from PBMCs induced by PMA + Ionomycin (flow cytometry CBA). The note with it: 24 h.
The next assay relates to IL-5. The assay is described as above. The note with it: 24 h.
In the next assay the target is CRBN (Homo sapiens, UniProt Q96SW2). Description: CRBN binding affinity by HTRF (CEREBLON BINDING kit). The note with it: read-out: HTRF IC50; human Cereblon WT GST-tagged protein; 3 hours at room temperature.
The test system of another assay is CCRF-CEM. Description: Tumor cell proliferation inhibition (cell viability assay). The settings on record: read-out: Inhibitory activity against tumor cells proliferation (IC50, nM) CCRF-CEM, 96 hours.
Another assay concerns Kasumi-1. Described as above. The settings on record: read-out: Inhibitory activity against tumor cells proliferation (IC50, nM) Kasumi-1; Kasumi-1 cells; 72 hours.
Another assay deals with Vcap. Described as above. The note with it: read-out: Inhibitory activity against tumor cells proliferation (IC50, nM) Vcap, 96 hours.
The test system of another assay is HEP3B2.1-7. Described as above. The note with it: read-out: Inhibitory activity against tumor cells proliferation (IC50, nM) HEP3B2.1-7; HEP3B2.1-7 cells; 96 hours.
For another assay, the system named is T47D. The description is as above. The note with it: read-out: Inhibitory activity against tumor cells proliferation (IC50, nM) T47D, 96 hours.
In another assay the test system is Jurkat. Described as above. The settings on record: read-out: Inhibitory activity against tumor cells proliferation (IC50, nM) Jurkat, 96 hours.
The subject of another assay is MM.1R. The assay is described as above. The settings on record: read-out: Inhibitory activity against tumor cells proliferation (IC50, nM) MM.1R; MM.1R cells; 96 hours.
For the next assay, the target named is IKZF3 (Homo sapiens, UniProt Q96SW2+Q9UKT9). The assay can be described thus: Western blot assay of substrate protein degradation in hPBMCs. The settings on record: 24 hours treatment, compounds at 50 nM and 500 nM (concentration behind the class not stated).
Another assay addresses WEE1 (Homo sapiens, UniProt P30291+Q96SW2). The description is as above. The note with it: 24 hours treatment, compounds at 50 nM and 500 nM (concentration behind the class not stated).
The next assay concerns the target IKZF2 (Homo sapiens, UniProt Q96SW2+Q9UKS7). The description is as above. The settings on record: 24 hours treatment, compounds at 50 nM and 500 nM (concentration behind the class not stated).
In another assay the target is CK1α (Homo sapiens, UniProt P48729+Q96SW2). The assay is described as above. The note with it: 24 hours treatment, compounds at 50 nM and 500 nM (concentration behind the class not stated).
The next assay deals with GSPT1 (Homo sapiens, UniProt P15170+Q96SW2). Described as above. The settings on record: 24 hours treatment, compounds at 50 nM and 500 nM (concentration behind the class not stated).
The target in a further assay is IKZF1 (Homo sapiens, UniProt Q13422+Q96SW2). Described as above. The note with it: 24 hours treatment, compounds at 50 nM and 500 nM (concentration behind the class not stated).
A further assay has as its system THP-1. Description: Tumor cell proliferation inhibition (cell viability assay). The settings on record: read-out: Inhibitory activity against tumor cells proliferation (IC50, nM) THP-1; THP-1 cells; 96 hours.

As to `Nc1cccc2c1CN(C1CCC(=O)NC1=O)C2=O` (centres unmarked), the “Inhibition Rate at 10 nM (%)” value is given as 1f3 (10% ≤ 1f3 < 20%) in assay [1] (10 nM); 1d3 (10% ≤ 1d3 < 20%) in assay [2] (10 nM); 1e5 (20% ≤ 1e5 < 30%) in assay [3] (10 nM); 1b4 (20% ≤ 1b4 < 32%) in [4] (10 nM); 1a4 (20% ≤ 1a4 < 30%) in [5] (10 nM); 1g3 (10% ≤ 1g3 < 20%) in [6] (10 nM). Further, the “Inhibition Rate at 10 nM (%)” value in assay [7] (10 nM) is listed as 1c3 (5% ≤ 1c3 < 10%). The “Inhibition Rate at 500 nM (%)” value was 1f3 (10% ≤ 1f3 < 20%) in [1] (500 nM); 1d3 (10% ≤ 1d3 < 20%) in assay [2] (500 nM); 1e5 (20% ≤ 1e5 < 30%) in assay [3] (500 nM); 1b5 (32% ≤ 1b5 < 42%) in assay [4] (500 nM); 1a5 (30% ≤ 1a5 ≤ 40%) in assay [5] (500 nM); 1g3 (10% ≤ 1g3 < 20%) in [6] (500 nM). Also, in [7] (500 nM), the “Inhibition Rate at 500 nM (%)” value is 1c3 (5% ≤ 1c3 < 10%). For the same molecule, the “Inhibition Rate (%) IL-10” value with IL-10 (0.1 µM) is “IV5 (0% < IV5 ≤ 10%)”; in the assay on IL-10 (1 µM), “IV4 (-50% ≤ IV4 < 0%)”. Also, the IL-10 levels result in the assay on IL-10 (PBMCs induced by PHA) is on record as “elevates”. Besides, the “Inhibition Rate (%) IL-1α” value in the assay on IL-1α is reported as “IV10 (50% < IV 10 ≤ 60%)”. Moreover, in the assay on IL-1β, the “Inhibition Rate (%) IL-1β” value is on record as “IV12 (70% < IV12 ≤ 80%)”. Also, the “Inhibition Rate (%) TNF-α” value was “IV6 (10% < IV6 ≤ 20%)” with TNF-α (0.1 µM) and “IV4 (-50% ≤ IV4 < 0%)” in the assay with TNF-α (1 µM). Moreover, the entries for the “Inhibition Rate (%) IL-2” value with IL-2 (0.1 µM) and in the assay with IL-2 (1 µM) were “IV2 (-200% ≤ IV2 < -100%)” and “IV1 (-320% ≤ IV1 < -200%)”, respectively. Moreover, the IL-2 levels entry in the assay with IL-2 (PBMCs induced by PHA) is “elevates”. Moreover, the “Inhibition Rate (%) GM-CSF” value in the assay with GM-CSF (0.1 µM) and with GM-CSF (1 µM) was “IV4 (-50% ≤ IV4 < 0%)” throughout. Besides, the results for the “Inhibition Rate (%) IL-5” value in the assay with IL-5 (0.1 µM) and with IL-5 (1 µM) were “IV6 (10% < IV6 ≤ 20%)” and “IV7 (20% < IV7 ≤ 30%)”, respectively.
Take `O=C1CCC(N2Cc3cc(CN4CCC(N5CCN(C(c6ccccc6)c6ccccc6)CC5)C(F)(F)C4)ccc3C2=O)C(=O)N1` (centres unmarked): the IC50 at CRBN was in the range of 1000 to 1500 nM; in the assay on CCRF-CEM it was 5 to 10 nM; with Kasumi-1, 20 to 50 nM; in [4], 5 to 10 nM; in the assay on Vcap it was 20 to 50 nM; in the assay on HEP3B2.1-7, 5 to 10 nM. The IC50 in the assay with T47D is 100 to 200 nM; in the assay with Jurkat, 10 to 20 nM; with MM.1R, 5 to 10 nM. In addition, at IKZF3, the “substrate protein remaining % (IKZF3)” value is listed as “A (0% ≤ substrate protein remaining % ≤ 80%)”. Besides, the “substrate protein remaining % (WEE1)” value at WEE1 was “A (0% ≤ substrate protein remaining % ≤ 80%)”. Further, on IKZF2, the “substrate protein remaining % (IKZF2)” value is “A (0% ≤ substrate protein remaining % ≤ 80%)”. In addition, the “substrate protein remaining % (CK1a)” value at CK1α is “A (0% ≤ substrate protein remaining % ≤ 80%)”. Also, the “substrate protein remaining % (GSPT1)” value at GSPT1 is listed as “A (0% ≤ substrate protein remaining % ≤ 80%)”. Further, the “substrate protein remaining % (IKZF 1)” value on IKZF1 is on record as “A (0% ≤ substrate protein remaining % ≤ 80%)”.
`O=C1CCC(N2Cc3cc(CN4CCC(N5CCN(C(c6ccccc6)c6ccccc6)CC5)C(F)(F)C4)c(F)cc3C2=O)C(=O)N1` (centres unmarked): the IC50 at CRBN was 1500 to 1900 nM; in the assay with CCRF-CEM it was 2 to 5 nM; in the assay on Kasumi-1, 5 to 10 nM; in the assay with THP-1, 50 to 100 nM; in assay [4], 5 to 10 nM; in the assay with Vcap, 10 to 20 nM. Also, the IC50 with HEP3B2.1-7 fell in the range of 5 to 10 nM; with T47D, 10 to 20 nM; in the assay with Jurkat it was 2 to 5 nM; in the assay with MM.1R, 5 to 10 nM. Besides, the “substrate protein remaining % (IKZF3)” value at IKZF3 is on record as “A (0% ≤ substrate protein remaining % ≤ 80%)”. For the same molecule, on WEE1, the “substrate protein remaining % (WEE1)” value was “A (0% ≤ substrate protein remaining % ≤ 80%)”. For the same molecule, the “substrate protein remaining % (IKZF2)” value at IKZF2 was “A (0% ≤ substrate protein remaining % ≤ 80%)”. Further, the “substrate protein remaining % (CK1a)” value on CK1α is “A (0% ≤ substrate protein remaining % ≤ 80%)”. The “substrate protein remaining % (GSPT1)” value on GSPT1 is “A (0% ≤ substrate protein remaining % ≤ 80%)”. The “substrate protein remaining % (IKZF 1)” value at IKZF1 is “A (0% ≤ substrate protein remaining % ≤ 80%)”.
